scFv variants of Ab-14 (heavy chain) against a SARS-CoV-2 spike peptide

Source: Li et al. 2023 (doi:10.1038/s41467-023-39022-2), MIT Lincoln Laboratory and A-Alpha Bio; data file from the FLAb repository.

Binding partner: SARS-CoV-2 spike HR2 peptide, sequence PDVDLGDISGINAS.

Parent: Ab-14, a human scFv built as VH, a 15-residue (Gly4Ser)3 linker, VL. Only the CDRs of the heavy chain vary.
VH: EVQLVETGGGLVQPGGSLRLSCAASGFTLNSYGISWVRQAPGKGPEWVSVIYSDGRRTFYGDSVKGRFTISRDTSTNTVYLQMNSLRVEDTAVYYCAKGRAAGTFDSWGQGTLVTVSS
VL: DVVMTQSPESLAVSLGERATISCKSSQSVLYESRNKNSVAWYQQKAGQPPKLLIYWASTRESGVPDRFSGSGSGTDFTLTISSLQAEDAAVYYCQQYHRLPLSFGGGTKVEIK

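The starting antibody came from a phage panning campaign against this peptide. The variants were designed computationally from a first round of random CDR variants and then made and measured. Their group label is 14H_En_HC (En: ensemble of fine-tuned language models; HC: hill climbing; a sequence that several methods proposed may carry one label only). The assay is AlphaSeq: two haploid yeast populations carry antibody and antigen on their surface. Pairs that bind mate more often; barcode pairs of the diploids are counted by sequencing. Each replicate has its own calibration line, from reference interactions of the BCL2 family. Each pool was mated in six replicate cultures.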

Each variant is given by its three heavy chain CDRs, as the data file delimits them; those of the parent are GFTLNSYGIS, VIYSDGRRTFYGDSVK, GRAAGTFDS. Values are log10 of the apparent Kd in nM; lower means stronger binding. A mean of the replicates is given; it leaves out those without a signal. A sequence measured in both rounds can read differently, since the two assays cover different ranges.

{"CDR-H1": "GFDLESYGIS", "CDR-H2": "VIYADGRRTAYADSVK", "CDR-H3": "GNVAGTFDV", "log10 Kd, replicates": "-0.15 / -0.90 / -0.82 / -0.42 / -0.29 / -0.80", "mean log10 Kd (nM)": "-0.56", "signal with controls": "0/18"}
{"CDR-H1": "GFDLDEYGIS", "CDR-H2": "VIYADGQRTFYADSVK", "CDR-H3": "GTNAGTFDS", "log10 Kd, replicates": "-0.54 / -0.76 / -0.90 / -0.51 / -0.75 / -0.52", "mean log10 Kd (nM)": "-0.66", "signal with controls": "0/18"}
{"CDR-H1": "GFDLNEYGIS", "CDR-H2": "VIYADGRRTFYTDSVK", "CDR-H3": "GQEAGTFDV", "log10 Kd, replicates": "-0.42 / -0.45 / -0.71 / -0.63 / -0.80 / -0.61", "mean log10 Kd (nM)": "-0.60", "signal with controls": "0/18"}
{"CDR-H1": "GFDLDEYGIS", "CDR-H2": "VIYADGRRTFYSDSVK", "CDR-H3": "GNTAGTFDV", "log10 Kd, replicates": "-0.60 / -0.42 / -0.45 / -0.71 / -0.60 / -0.45", "mean log10 Kd (nM)": "-0.54", "signal with controls": "0/18"}
{"CDR-H1": "GFDLNEYGIS", "CDR-H2": "VIYADGKRTFYTDDVK", "CDR-H3": "GEVAGTFDL", "log10 Kd, replicates": "-0.41 / -0.37 / -0.28 / -0.37 / -0.44 / -0.34", "mean log10 Kd (nM)": "-0.37", "signal with controls": "0/18"}
{"CDR-H1": "GFNLDEYGIS", "CDR-H2": "VIYADGRRTFYQDSVK", "CDR-H3": "GEVAGTFDV", "log10 Kd, replicates": "-0.54 / -0.24 / -0.69 / -1.68 / -0.81 / -0.65", "mean log10 Kd (nM)": "-0.77", "signal with controls": "0/18"}
{"CDR-H1": "GFDLNEYGIS", "CDR-H2": "VIYADGRRTFYADSVK", "CDR-H3": "GKVAGTFIQ", "log10 Kd, replicates": "-0.20 / -0.23 / -0.33 / -0.60 / -0.34 / -0.12", "mean log10 Kd (nM)": "-0.30", "signal with controls": "1/18 (2.55)"}
{"CDR-H1": "GFDLNEYGIS", "CDR-H2": "VIYADGLRTFYTDSVK", "CDR-H3": "GEVAGTFDS", "log10 Kd, replicates": "-0.35 / -0.63 / -0.40 / -0.26 / 0.41 / 0.16", "mean log10 Kd (nM)": "-0.18", "signal with controls": "0/18"}
{"CDR-H1": "GFDLNEYGIS", "CDR-H2": "VIYADGRRTSYIDSVK", "CDR-H3": "GEIAGTFDV", "log10 Kd, replicates": "0.06 / -0.09 / -0.21 / -0.49 / 0.17 / -0.02", "mean log10 Kd (nM)": "-0.10", "signal with controls": "0/18"}
{"CDR-H1": "GFDLEEYGIS", "CDR-H2": "VIYADGRRTAYSDSVK", "CDR-H3": "GENAGTFDV", "log10 Kd, replicates": "-0.02 / 1.00 / -0.43 / -0.38 / 0.09 / 0.08", "mean log10 Kd (nM)": "0.06", "signal with controls": "0/18"}
{"CDR-H1": "GFNLNEYGIS", "CDR-H2": "VIYADGKRTFYADSVK", "CDR-H3": "GHQAGTFDM", "log10 Kd, replicates": "-0.72 / -0.73 / -0.66 / -1.05 / -0.87 / -0.63", "mean log10 Kd (nM)": "-0.78", "signal with controls": "0/18"}
{"CDR-H1": "GFNLNEYGIS", "CDR-H2": "VIYADGVRTFYSDSVK", "CDR-H3": "GEAAGTFDV", "log10 Kd, replicates": "-0.09 / 0.00 / -0.24 / -0.16 / -0.29 / -0.02", "mean log10 Kd (nM)": "-0.13", "signal with controls": "0/18"}
{"CDR-H1": "GFDLNEYGIS", "CDR-H2": "VIYADGRRTFYSDSVK", "CDR-H3": "GSEAGTFNM", "log10 Kd, replicates": "0.71 / -0.76 / 0.06 / -1.01 / 1.96 / 0.06", "mean log10 Kd (nM)": "0.17", "signal with controls": "0/18"}
{"CDR-H1": "GFDLNEYGIS", "CDR-H2": "VIYADGVRTFYTDSVK", "CDR-H3": "GANAGTFDS", "log10 Kd, replicates": "1.08 / 1.06 / 1.74 / 0.95 / 1.82 / 2.12", "mean log10 Kd (nM)": "1.46", "signal with controls": "1/18 (1.58)"}
{"CDR-H1": "GFDLNEYGIS", "CDR-H2": "VIYADGRRTFYQDSVK", "CDR-H3": "GNVAGTFDS", "log10 Kd, replicates": "-0.83 / -0.56 / 0.12 / 0.03 / -0.38 / -0.32", "mean log10 Kd (nM)": "-0.32", "signal with controls": "0/18"}
{"CDR-H1": "GFDLNEYGIS", "CDR-H2": "VIYADGRRTFYVDSVK", "CDR-H3": "GEVAGTFDV", "log10 Kd, replicates": "-0.63 / -0.65 / -0.61 / -0.92 / -0.66 / -0.49", "mean log10 Kd (nM)": "-0.66", "signal with controls": "0/18"}
{"CDR-H1": "GFDINEYGIS", "CDR-H2": "VIYADGQRTFYADSVK", "CDR-H3": "GNQGGTFDL", "log10 Kd, replicates": "0.58 / -0.08 / 0.40 / 0.31 / 0.23 / 0.58", "mean log10 Kd (nM)": "0.34", "signal with controls": "0/18"}
{"CDR-H1": "GFDLNEYGIS", "CDR-H2": "VIYADGRRTFYADSVK", "CDR-H3": "GENAGTFVQ", "log10 Kd, replicates": "0.08 / 0.14 / 1.37 / 1.89 / 0.88 / 1.16", "mean log10 Kd (nM)": "0.92", "signal with controls": "0/18"}
{"CDR-H1": "GFNLNEYGIS", "CDR-H2": "VIYADGQRTFYADSVK", "CDR-H3": "GQIAGTFIV", "log10 Kd, replicates": "1.09 / 0.34 / 0.99 / 1.27 / 0.48 / 0.96", "mean log10 Kd (nM)": "0.86", "signal with controls": "0/18"}
{"CDR-H1": "GFDLNEYGIS", "CDR-H2": "VIYADGRRTFYTDNVK", "CDR-H3": "GQNAGTFDF", "log10 Kd, replicates": "0.27 / 0.02 / -0.43 / -0.16 / 0.08 / 0.32", "mean log10 Kd (nM)": "0.02", "signal with controls": "0/18"}
{"CDR-H1": "GFDLNEYGIS", "CDR-H2": "VIYADGLRTFYTDSVK", "CDR-H3": "GELAGTFDS", "log10 Kd, replicates": "-0.24 / -0.16 / -0.41 / -0.25 / -0.34 / -0.25", "mean log10 Kd (nM)": "-0.28", "signal with controls": "0/18"}
{"CDR-H1": "GFDLNEYGIS", "CDR-H2": "VIYADGRRTFYTDSVK", "CDR-H3": "GTNAGTFDS", "log10 Kd, replicates": "-0.71 / -0.51 / -0.31 / -0.34 / -0.57 / -0.51", "mean log10 Kd (nM)": "-0.49", "signal with controls": "0/18"}
{"CDR-H1": "GFNLNEYGIS", "CDR-H2": "VIYADGRRTFYADSVK", "CDR-H3": "GEAAGTFDA", "log10 Kd, replicates": "0.26 / 0.49 / 0.24 / 0.32 / 0.28 / 0.11", "mean log10 Kd (nM)": "0.28", "signal with controls": "2/18 (2.01)"}
{"CDR-H1": "GFDLNEYGIS", "CDR-H2": "VIYADGLRTFYTDSVK", "CDR-H3": "GEIAGTFDV", "log10 Kd, replicates": "-0.25 / -0.63 / -0.88 / -0.64 / -0.64 / -0.38", "mean log10 Kd (nM)": "-0.57", "signal with controls": "0/18"}
{"CDR-H1": "GFNLDEYGIS", "CDR-H2": "VIYADGRRTFYADSVK", "CDR-H3": "GQVAGTFLV", "log10 Kd, replicates": "-0.36 / -0.60 / -0.13 / -0.88 / -0.90 / 0.97", "mean log10 Kd (nM)": "-0.32", "signal with controls": "0/18"}

The 3 strongest on average among those seen in every replicate, once more:

{"CDR-H1": "GFNLNEYGIS", "CDR-H2": "VIYADGKRTFYADSVK", "CDR-H3": "GHQAGTFDM", "log10 Kd, replicates": "-0.72 / -0.73 / -0.66 / -1.05 / -0.87 / -0.63", "mean log10 Kd (nM)": "-0.78", "signal with controls": "0/18"}
{"CDR-H1": "GFNLDEYGIS", "CDR-H2": "VIYADGRRTFYQDSVK", "CDR-H3": "GEVAGTFDV", "log10 Kd, replicates": "-0.54 / -0.24 / -0.69 / -1.68 / -0.81 / -0.65", "mean log10 Kd (nM)": "-0.77", "signal with controls": "0/18"}
{"CDR-H1": "GFDLDEYGIS", "CDR-H2": "VIYADGQRTFYADSVK", "CDR-H3": "GTNAGTFDS", "log10 Kd, replicates": "-0.54 / -0.76 / -0.90 / -0.51 / -0.75 / -0.52", "mean log10 Kd (nM)": "-0.66", "signal with controls": "0/18"}

The authors averaged sequences with at least three values out of six and counted those with two or fewer as poor binders. The parent sequence was in this pool as ten entries: three were never detected, three once, and four in most replicates, with averages from 0.34 to 2.37. Three control strains display no target. For all heavy chain designs, 1% of the pairings with them gave a signal, with a median of 2.08 and one signal in twenty below 0.84, so weak values seen in few replicates may be background. The control count says in how many pairings with the empty strains this scFv gave a signal, with their mean in brackets.